# Results reported in PubChem BioAssay AID2331 (The Scripps Research Institute Molecular Screening Center, 2010).
# Protein sequences, listed by entry. Tags and fused reporters are not part of them. Lines headed by an entry give the natural chain unless they say otherwise; changes in a name come on top.
# UniProt P53041: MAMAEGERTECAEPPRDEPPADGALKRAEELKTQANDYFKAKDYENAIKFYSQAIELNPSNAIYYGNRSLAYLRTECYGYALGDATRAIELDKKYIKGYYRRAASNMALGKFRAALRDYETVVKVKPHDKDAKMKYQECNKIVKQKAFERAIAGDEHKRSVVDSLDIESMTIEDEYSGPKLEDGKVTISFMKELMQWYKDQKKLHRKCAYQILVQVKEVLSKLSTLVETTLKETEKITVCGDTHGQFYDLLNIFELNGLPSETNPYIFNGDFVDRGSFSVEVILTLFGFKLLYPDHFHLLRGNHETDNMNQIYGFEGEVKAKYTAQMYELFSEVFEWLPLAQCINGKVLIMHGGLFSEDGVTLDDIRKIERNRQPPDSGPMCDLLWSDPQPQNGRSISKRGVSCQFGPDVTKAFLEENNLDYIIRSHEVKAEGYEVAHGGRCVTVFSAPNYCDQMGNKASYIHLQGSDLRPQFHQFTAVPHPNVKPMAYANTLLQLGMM
# This is a selection; strong and weak results do not stand in their true shares. The source made the active and inactive calls. Cut-off read from the data, not from the text of the source: active = inhibition above about 9.5%; inactive = the rest.
# Biological target: Serine/threonine-protein phosphatase 5 (Homo sapiens) (UniProt P53041)
# Assay: PP5 phosphatase inhibitors, confirmation, biochemical, fluorescence, human (AID 2331)
# Conditions: Purified PP5, fluorogenic phosphatase substrate, at 6.7 µM, hits give high values
structure (smiles),measurement,value
CN(C(=O)Cc1ccc(Cl)c(Cl)c1)[C@H]1CCCC[C@H]1N1CCCC1,inhibition,inactive: 6.5%
